# Ab-91 heavy chain CDR variants: yeast mating affinities

The target is the same throughout: PDVDLGDISGINAS, from the HR2 region of SARS-CoV-2 spike.

Each scFv is VL, a (GGGGS)3 linker, VH, as in the parent Ab-91, and differs from it in the CDRs of the heavy chain only.
VL: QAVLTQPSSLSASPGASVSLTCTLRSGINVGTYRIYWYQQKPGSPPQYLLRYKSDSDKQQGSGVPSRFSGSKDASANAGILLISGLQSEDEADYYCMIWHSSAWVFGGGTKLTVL
VH: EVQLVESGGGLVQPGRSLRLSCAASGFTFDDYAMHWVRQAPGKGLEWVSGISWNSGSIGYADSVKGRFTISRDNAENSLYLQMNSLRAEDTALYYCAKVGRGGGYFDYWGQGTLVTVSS

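In library AAYL51, one, two or three CDR residues were substituted; doubles and triples were drawn at random. The scFvs were displayed on barcoded MATa yeast, the peptide on MATalpha yeast. Binding brings cells together so that they mate, and sequencing counts the barcode pairs among the diploids. Scores were corrected for input abundance and mapped to Kd with protein pairs of known affinity run in the same pool. There are three technical replicates.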

Substitutions are numbered in sequence along the VH above, starting at 1 (not Kabat).
Scale: log10 of Kd in nM, estimated from mating counts; low values are strong binders.
Where no diploid with the target was found in that replicate, the entry reads "n.d.": below detection, most likely a poor binder, though not proof of it.
Empty control strains, which show no peptide, gave a signal in 21% of pairings with library AAYL51; the median was 4.54 and 95% of these signals were weaker than 3.26. No background was subtracted. For each scFv, signals with the empty controls are counted beside the result, with their mean in brackets.
For reference, the parent read 1.86 as the reference entry and 0.88 as a member of this library.

| changes | log10 Kd, replicates | control signals |
|---|---|---|
| H35T+S52D+S57L | 5.10 / n.d. / 4.49 | 5/9 (4.40) |
| D31W+W53Q+A61Q | 1.38 / 1.28 / 0.96 | 3/9 (3.88) |
| A33W+S55N+G102A | n.d. / n.d. / n.d. | 0/9 |
| G59W+V99I+Y105N | 5.15 / 3.98 / n.d. | 3/9 (4.20) |
| I58F+G59Y+G104R | 5.81 / 4.30 / 4.84 | 4/9 (4.91) |
| A61Y | 2.78 / 2.39 / 1.96 | 2/9 (3.85) |
| A33I+M34G+G104P | n.d. / n.d. / n.d. | 0/9 |
| D30Y+I51C+D62P | 4.61 / 4.89 / 4.33 | 2/9 (4.94) |
| Y32V+G50F+W53F | n.d. / n.d. / n.d. | 0/9 |
| A33M+Y60S+V64T | n.d. / 4.52 / 5.49 | 2/9 (5.51) |
| S57H+G104D+F106D | n.d. / 4.44 / n.d. | 5/9 (4.51) |
| Y60P+G100D+G103S | 4.87 / 4.18 / n.d. | 4/9 (4.06) |
| M34L+Y108M | n.d. / n.d. / n.d. | 0/9 |
| F29H+H35V+G56R | 5.15 / n.d. / n.d. | 4/9 (4.55) |
| Y32K+G100A+G104M | 4.43 / 4.40 / 5.01 | 3/9 (4.33) |
| I51S+S57G+D107N | n.d. / n.d. / n.d. | 1/9 (5.14) |
| S52T | 3.96 / 5.53 / 4.26 | 1/9 (5.08) |
| G56V+K65I+G103M | 1.10 / 1.11 / 0.47 | 5/9 (5.89) |
| A33S+N54P+G103K | n.d. / n.d. / n.d. | 2/9 (4.33) |
| S55C+G103A | 3.66 / n.d. / n.d. | 1/9 (2.92) |
| F27M+Y105N | n.d. / n.d. / n.d. | 2/9 (3.90) |
| H35G+G56L+Y105G | 4.77 / 5.02 / n.d. | 1/9 (4.16) |
| D30H+A33K+N54K | n.d. / n.d. / n.d. | 1/9 (4.32) |
| F27H+S55P+D62P | n.d. / n.d. / n.d. | 3/9 (4.03) |
| Y32E+H35A+S63L | n.d. / n.d. / n.d. | 0/9 |
| Y32R+Y60E | n.d. / n.d. / n.d. | 1/9 (4.24) |
| S57W+V99D+D107G | 4.21 / 4.91 / 5.93 | 8/9 (4.84) |
| F27W+D31Q+G59K | 4.40 / 3.34 / n.d. | 0/9 |
| F27S+K65C+G103T | n.d. / n.d. / n.d. | 1/9 (4.75) |
| Y32F+A61D+G104H | 5.84 / n.d. / n.d. | 0/9 |
| I51A+G103S+Y105Q | n.d. / 4.42 / n.d. | 0/9 |
| N54H+S55G+I58C | 0.98 / 0.94 / 0.49 | 1/9 (3.73) |
| S55W+G59N+F106C | n.d. / n.d. / n.d. | 3/9 (4.43) |
| I51W+W53C+S57R | n.d. / n.d. / n.d. | 1/9 (4.12) |
| F29G+S55C+Y60D | n.d. / n.d. / n.d. | 1/9 (3.25) |
| G103F+G104S | n.d. / n.d. / 3.99 | 1/9 (3.86) |
| T28R+A33T+G56E | n.d. / n.d. / n.d. | 2/9 (4.41) |
| F27L+S55M+Y60L | n.d. / n.d. / n.d. | 3/9 (3.48) |
| D31H+I58W+Y60F | 2.00 / 2.68 / 0.85 | 0/9 |
| H35N+G102C+Y105G | 6.20 / 5.51 / 5.52 | 8/9 (4.72) |
| Y60I+R101T+Y108V | 3.02 / 3.07 / 3.27 | 3/9 (5.32) |
| T28I+G50H+V99E | 4.71 / 4.14 / 5.58 | 5/9 (4.60) |
| S57D+K65A+G104L | n.d. / n.d. / n.d. | 0/9 |
| H35F+S63H+R101G | n.d. / n.d. / n.d. | 1/9 (3.82) |
| D30S+N54W+G103P | 2.15 / 2.07 / 2.19 | 4/9 (4.02) |
| G102E+G104S | 3.75 / 5.03 / 4.11 | 3/9 (5.03) |
| D31P+M34K+K65A | n.d. / n.d. / n.d. | 0/9 |
| Y32T+V64A+V99P | n.d. / n.d. / 4.56 | 1/9 (3.85) |

6 of these entries, quoted again:

{"changes": "D31H+I58W+Y60F", "log10 Kd, replicates": "2.00 / 2.68 / 0.85", "control signals": "0/9"}
{"changes": "Y32R+Y60E", "log10 Kd, replicates": "n.d. / n.d. / n.d.", "control signals": "1/9 (4.24)"}
{"changes": "I51A+G103S+Y105Q", "log10 Kd, replicates": "n.d. / 4.42 / n.d.", "control signals": "0/9"}
{"changes": "F29G+S55C+Y60D", "log10 Kd, replicates": "n.d. / n.d. / n.d.", "control signals": "1/9 (3.25)"}
{"changes": "A33S+N54P+G103K", "log10 Kd, replicates": "n.d. / n.d. / n.d.", "control signals": "2/9 (4.33)"}
{"changes": "H35N+G102C+Y105G", "log10 Kd, replicates": "6.20 / 5.51 / 5.52", "control signals": "8/9 (4.72)"}

Reference: Engelhart et al. 2022, doi:10.1038/s41597-022-01779-4. File: FLAb, binding data.